# Measurements: publication PMC5028280 (Neuropharmacology, 2016)
# Test system: male ICR mice
# Assay: FOB, cannabinoid receptor antagonism of 3 mg/kg JWH-018 effects
# Type: in vivo, mouse
# Settings: rimonabant/vehicle and SR144528/vehicle groups; all mice
compound,measurement,value
Cc1c(C(=O)NN2CCCCC2)nn(-c2ccc(Cl)cc2Cl)c1-c1ccc(Cl)cc1 [rimonabant],"FOB selected measures, antagonist 3 mg/kg i.p. plus vehicle",Normal responses
